By UniProt entry, the sequences of proteins in these tests, tags left out.
UniProt P08483, whole entry: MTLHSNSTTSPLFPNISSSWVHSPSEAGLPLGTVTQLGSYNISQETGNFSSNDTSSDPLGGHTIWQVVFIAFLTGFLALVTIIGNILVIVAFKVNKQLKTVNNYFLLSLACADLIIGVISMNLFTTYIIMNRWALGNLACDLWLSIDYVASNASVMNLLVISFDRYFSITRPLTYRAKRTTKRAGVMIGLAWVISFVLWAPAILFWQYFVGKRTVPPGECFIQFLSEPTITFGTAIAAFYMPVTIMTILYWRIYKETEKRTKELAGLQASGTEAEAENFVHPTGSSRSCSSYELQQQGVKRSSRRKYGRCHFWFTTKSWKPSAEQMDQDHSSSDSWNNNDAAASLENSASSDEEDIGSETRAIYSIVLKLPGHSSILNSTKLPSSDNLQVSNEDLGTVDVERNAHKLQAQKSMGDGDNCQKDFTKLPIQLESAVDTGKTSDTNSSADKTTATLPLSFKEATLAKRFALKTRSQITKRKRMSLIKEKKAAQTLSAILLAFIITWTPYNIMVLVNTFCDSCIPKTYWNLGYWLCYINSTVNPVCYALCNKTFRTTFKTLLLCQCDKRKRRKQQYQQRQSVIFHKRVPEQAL

In paper PMC9576955, “Daidzein is the in vivo active compound of Puerariae Lobatae Radix water extract for muscarinic receptor-3 inhibition against overactive bladder” (Frontiers in Pharmacology, 2022):

Target: T1, M3 receptor (carbachol-induced detrusor contraction) (Rattus norvegicus, UniProt P08483)
T1 construct: the whole bladder was immediately isolated to prepare detrusor strips in Krebs’ solution; from tissue; host or cells: bladder detrusor strips / bladder sections of SHR
Assay: Carbachol-induced bladder strip (detrusor) contraction, ex vivo organ bath
Assay type: cell-based, spontaneously hypertensive rats (SHRs)
Description: SHRs were sacrificed with carbon dioxide, and the whole bladder was immediately isolated to prepare detrusor strips in Krebs’ solution. Then, the strips were placed in a PanLab organ bath (Harvard Apparatus, Holliston, Massachusetts, United States) full of bubbling Krebs’ solution at 37°C. After stimulation with high-potassium solution, the strips were washed with Krebs’ solution three times. When the strips were incubated in Krebs’ solution until the tension was set at about 1.5 g, 0.1% DMSO was added for a 10-min incubation as a control, and then the muscle strip was stimulated to shrink by adding muscarinic agonist carbachol (10 μM), which is used for determinization of M3 receptor function in the bladder strip ([Liang and Leung, 2012]). Between two stimulations, the strips were washed out and balanced for 15 min. The contraction force of the bladder strip was recorded. After the experiment, detrusor strips were collected, dried, and weighed for data normalization. Data were recorded and analyzed using LabChart software (version 8.0).
Detrusor strips were isolated from SHRs and placed in the organ bath as mentioned previously, and then inhibitory activities of different fractions at 100 μg/ml were tested under carbachol (10 μM)-stimulated detrusor contraction.

O=c1c(-c2ccc(O)cc2)coc2cc(O)cc(O)c12 [Genistein, Genistein (5-hydroxyl daidzein)]
IC50: 68.7 µM
IC10 value (carbachol (10 μM)-induced detrusor contraction, Mean ± SEM, n = 3): 5.05 ± 0.58 µg/mL (≈ 18.7 µM)

In brackets after ≈: the same amount, converted by molar mass.
